Experimental data: paper PMC12207880 (The Oncologist, 2025)

System: patients with advanced solid tumors

## Cc1nc2c(F)cc(-c3nc(Nc4ccc5c(n4)CCN(CCN(C)C)C5)ncc3F)cc2n1C1CC1
300 mg QD, N = 4
  Hyponatraemia, Grade All: 0 n (%)
  Hyponatraemia, Grade ≥3: 0 n (%)
  Leucocyte count decreased, Grade All: 4 (100) n (%)
  Leucocyte count decreased, Grade ≥3: 0 n (%)
  Lymphocyte count decreased, Grade All: 3 (75.0) n (%)
  Lymphocyte count decreased, Grade ≥3: 1 (25.0) n (%)
  Nausea, Grade All: 0 n (%)
  Nausea, Grade ≥3: 0 n (%)
  Neutrophil count decreased, Grade All: 4 (100) n (%)
  Neutrophil count decreased, Grade ≥3: 0 n (%)
  Platelet count decreased, Grade All: 2 (50.0) n (%)
  Platelet count decreased, Grade ≥3: 0 n (%)
  Rash, Grade All: 0 n (%)
  Rash, Grade ≥3: 0 n (%)
  Vomiting, Grade All: 0 n (%)
  Vomiting, Grade ≥3: 0 n (%)
  γ-glutamyl transpeptidase increased, Grade All: 1 (25.0) n (%)
  γ-glutamyl transpeptidase increased, Grade ≥3: 0 n (%)
400 mg QD, N = 9
  Abdominal pain, Grade All: 3 (33.3) n (%)
  Abdominal pain, Grade ≥3: 0 n (%)
  Alanine aminotransferase increased, Grade All: 3 (33.3) n (%)
  Alanine aminotransferase increased, Grade ≥3: 1 (11.1) n (%)
  Alkaline phosphatase increased, Grade All: 1 (11.1) n (%)
  Alkaline phosphatase increased, Grade ≥3: 0 n (%)
  All TRAEs, Grade All: 9 (100) n (%)
  All TRAEs, Grade ≥3: 7 (77.8) n (%)
  Anaemia, Grade All: 5 (55.6) n (%)
  Anaemia, Grade ≥3: 0 n (%)
  Appetite decreased, Grade All: 0 n (%)
  Appetite decreased, Grade ≥3: 0 n (%)
  Aspartate aminotransferase increased, Grade All: 4 (44.4) n (%)
  Aspartate aminotransferase increased, Grade ≥3: 0 n (%)
  Blood creatinine increased, Grade All: 1 (11.1) n (%)
  Blood creatinine increased, Grade ≥3: 0 n (%)
  Blood lactic dehydrogenase increased, Grade All: 1 (11.1) n (%)
  Blood lactic dehydrogenase increased, Grade ≥3: 0 n (%)
  Diarrhoea, Grade All: 7 (77.8) n (%)
  Diarrhoea, Grade ≥3: 2 (22.2) n (%)
  Dizziness, Grade All: 0 n (%)
  Dizziness, Grade ≥3: 0 n (%)
  Electrocardiogram QT prolonged, Grade All: 0 n (%)
  Electrocardiogram QT prolonged, Grade ≥3: 0 n (%)
  Fatigue, Grade All: 3 (33.3) n (%)
  Fatigue, Grade ≥3: 2 (22.2) n (%)
  Haematuria, Grade All: 0 n (%)
  Haematuria, Grade ≥ 3: 0 n (%)
  Hypoalbuminemia, Grade All: 0 n (%)
  Hypoalbuminemia, Grade ≥3: 0 n (%)
  Hypokalaemia, Grade All: 4 (44.4) n (%)
  Hypokalaemia, Grade ≥3: 2 (22.2) n (%)
  Hyponatraemia, Grade All: 1 (11.1) n (%)
  Hyponatraemia, Grade ≥3: 0 n (%)
  Leucocyte count decreased, Grade All: 8 (88.9) n (%)
  Leucocyte count decreased, Grade ≥3: 2 (22.2) n (%)
  Lymphocyte count decreased, Grade All: 2 (22.2) n (%)
  Lymphocyte count decreased, Grade ≥3: 0 n (%)
  Nausea, Grade All: 5 (55.6) n (%)
  Nausea, Grade ≥3: 1 (11.1) n (%)
  Neutrophil count decreased, Grade All: 7 (77.8) n (%)
  Neutrophil count decreased, Grade ≥3: 2 (22.2) n (%)
  Platelet count decreased, Grade All: 4 (44.4) n (%)
  Platelet count decreased, Grade ≥3: 0 n (%)
  Rash, Grade All: 1 (11.1) n (%)
  Rash, Grade ≥3: 0 n (%)
  Vomiting, Grade All: 6 (66.7) n (%)
  Vomiting, Grade ≥3: 0 n (%)
  γ-glutamyl transpeptidase increased, Grade All: 2 (22.2) n (%)
  γ-glutamyl transpeptidase increased, Grade ≥3: 1 (11.1) n (%)
600 mg QD, N = 7
  Abdominal pain, Grade All: 3 (42.9) n (%)
  Abdominal pain, Grade ≥3: 0 n (%)
  Alanine aminotransferase increased, Grade All: 1 (14.3) n (%)
  Alanine aminotransferase increased, Grade ≥3: 0 n (%)
  Alkaline phosphatase increased, Grade All: 1 (14.3) n (%)
  Alkaline phosphatase increased, Grade ≥3: 0 n (%)
  All TRAEs, Grade All: 7 (100) n (%)
  All TRAEs, Grade ≥3: 4 (57.1) n (%)
  Anaemia, Grade All: 7 (100) n (%)
  Anaemia, Grade ≥3: 0 n (%)
  Appetite decreased, Grade All: 2 (28.6) n (%)
  Appetite decreased, Grade ≥3: 0 n (%)
  Aspartate aminotransferase increased, Grade All: 2 (28.6) n (%)
  Aspartate aminotransferase increased, Grade ≥3: 0 n (%)
  Blood creatinine increased, Grade All: 0 n (%)
  Blood creatinine increased, Grade ≥3: 0 n (%)
  Blood lactic dehydrogenase increased, Grade All: 2 (28.6) n (%)
  Blood lactic dehydrogenase increased, Grade ≥3: 0 n (%)
  Diarrhoea, Grade All: 6 (85.7) n (%)
  Diarrhoea, Grade ≥3: 0 n (%)
  Dizziness, Grade All: 2 (28.6) n (%)
  Dizziness, Grade ≥3: 0 n (%)
  Electrocardiogram QT prolonged, Grade All: 0 n (%)
  Electrocardiogram QT prolonged, Grade ≥3: 0 n (%)
  Fatigue, Grade All: 2 (28.6) n (%)
  Fatigue, Grade ≥3: 0 n (%)
  Haematuria, Grade All: 0 n (%)
  Haematuria, Grade ≥ 3: 0 n (%)
  Hypoalbuminemia, Grade All: 1 (14.3) n (%)
  Hypoalbuminemia, Grade ≥3: 0 n (%)
  Hypokalaemia, Grade All: 3 (42.9) n (%)
  Hypokalaemia, Grade ≥3: 0 n (%)
  Hyponatraemia, Grade All: 2 (28.6) n (%)
  Hyponatraemia, Grade ≥3: 0 n (%)
  Leucocyte count decreased, Grade All: 6 (85.7) n (%)
  Leucocyte count decreased, Grade ≥3: 2 (28.6) n (%)
  Lymphocyte count decreased, Grade All: 2 (28.6) n (%)
  Lymphocyte count decreased, Grade ≥3: 1 (14.3) n (%)
  Nausea, Grade All: 3 (42.9) n (%)
  Nausea, Grade ≥3: 0 n (%)
  Neutrophil count decreased, Grade All: 6 (85.7) n (%)
  Neutrophil count decreased, Grade ≥3: 1 (14.3) n (%)
  Platelet count decreased, Grade All: 0 n (%)
  Platelet count decreased, Grade ≥3: 0 n (%)
  Rash, Grade All: 1 (14.3) n (%)
  Rash, Grade ≥3: 0 n (%)
  Vomiting, Grade All: 6 (85.7) n (%)
  Vomiting, Grade ≥3: 0 n (%)
  γ-glutamyl transpeptidase increased, Grade All: 2 (28.6) n (%)
  γ-glutamyl transpeptidase increased, Grade ≥3: 1 (14.3) n (%)
600-mg cohort
  patients with SAE related to the study treatment (grade 3 increased GGT): 1 patients
All, N = 29
  Abdominal pain, Grade All: 9 (31.0) n (%)
  Abdominal pain, Grade ≥3: 0 n (%)
  Alanine aminotransferase increased, Grade All: 4 (13.8) n (%)
  Alanine aminotransferase increased, Grade ≥3: 1 (3.4) n (%)
  Alkaline phosphatase increased, Grade All: 4 (13.8) n (%)
  Alkaline phosphatase increased, Grade ≥3: 0 n (%)
  All TRAEs, Grade All: 29 (100) n (%)
  All TRAEs, Grade ≥3: 15 (51.7) n (%)
  Anaemia, Grade All: 19 (65.5) n (%)
  Anaemia, Grade ≥3: 1 (3.4) n (%)
  Appetite decreased, Grade All: 4 (13.8) n (%)
  Appetite decreased, Grade ≥3: 0 n (%)
  Aspartate aminotransferase increased, Grade All: 6 (20.7) n (%)
  Aspartate aminotransferase increased, Grade ≥3: 0 n (%)
  Blood creatinine increased, Grade All: 3 (10.3) n (%)
  Blood creatinine increased, Grade ≥3: 0 n (%)
  Blood lactic dehydrogenase increased, Grade All: 3 (10.3) n (%)
  Blood lactic dehydrogenase increased, Grade ≥3: 0 n (%)
  Diarrhoea, Grade All: 20 (69.0) n (%)
  Diarrhoea, Grade ≥3: 2 (6.9) n (%)
  Dizziness, Grade All: 4 (13.8) n (%)
  Dizziness, Grade ≥3: 0 n (%)
  Electrocardiogram QT prolonged, Grade All: 3 (10.3) n (%)
  Electrocardiogram QT prolonged, Grade ≥3: 0 n (%)
  Fatigue, Grade All: 5 (17.2) n (%)
  Fatigue, Grade ≥3: 2 (6.9) n (%)
  Haematuria, Grade All: 3 (10.3) n (%)
  Haematuria, Grade ≥ 3: 0 n (%)
  Hypoalbuminemia, Grade All: 4 (13.8) n (%)
  Hypoalbuminemia, Grade ≥3: 0 n (%)
  Hypokalaemia, Grade All: 7 (24.1) n (%)
  Hypokalaemia, Grade ≥3: 2 (6.9) n (%)
  Hyponatraemia, Grade All: 4 (13.8) n (%)
  Hyponatraemia, Grade ≥3: 0 n (%)
  Leucocyte count decreased, Grade All: 21 (72.4) n (%)
  Leucocyte count decreased, Grade ≥3: 4 (13.8) n (%)
  Lymphocyte count decreased, Grade All: 12 (41.4) n (%)
  Lymphocyte count decreased, Grade ≥3: 4 (13.8) n (%)
  Nausea, Grade All: 9 (31.0) n (%)
  Nausea, Grade ≥3: 1 (3.4) n (%)
  Neutrophil count decreased, Grade All: 20 (69.0) n (%)
  Neutrophil count decreased, Grade ≥3: 3 (10.3) n (%)
  Platelet count decreased, Grade All: 7 (24.1) n (%)
  Platelet count decreased, Grade ≥3: 0 n (%)
  Rash, Grade All: 3 (10.3) n (%)
  Rash, Grade ≥3: 0 n (%)
  Vomiting, Grade All: 12 (41.4) n (%)
  Vomiting, Grade ≥3: 0 n (%)
  γ-glutamyl transpeptidase increased, Grade All: 7 (24.1) n (%)
  γ-glutamyl transpeptidase increased, Grade ≥3: 2 (6.9) n (%)
All patients (n = 29), n = 3
  grade ≥3 TRAE decreased neutrophil count: 10.3%
All patients (n = 29), n = 4
  grade ≥3 TRAE decreased leucocyte count: 13.8%
  grade ≥3 TRAE decreased lymphocyte count: 13.8%
All patients (n = 29), n = 9
  TRAE abdominal pain: 31.0%
  TRAE nausea: 31.0%
All patients (n = 29), n = 12
  TRAE vomiting: 41.4%
All patients (n = 29), n = 19
  TRAE anemia: 65.5%
All patients (n = 29), n = 20
  TRAE decreased neutrophil count: 69.0%
  TRAE diarrhea: 69.0%
All patients (n = 29), n = 21
  TRAE decreased leucocyte count: 72.4%
All patients, 15/29
  patients with grade ≥3 TRAEs: 51.7%
Dose range from 50 to 600 mg QD
  tolerability and safety (conclusion in words): well tolerated and safe
N = 1, 200-mg cohort, considered unrelated to SPH4336
  Death due to disease progression: 3.4%

Read-outs that look alike come from different tables or passages of the source.
